Results taken from US20090286696A1.

Target: cyclosporin A (CsA) derivative containing a D-lysine residue, biotinylated
Assay: ribosome-display competition experiment, selection on CsA-coated beads; reference E. coli PpiB

Question: “human cyclophilin A (CyPA) (from UniProt P62937 1-165) (enzyme)” was tested. Which single-round selectivity for binding of CsA-coated beads by CyPA over PpiB did it give?
Answer: The single-round selectivity for binding of CsA-coated beads by CyPA over PpiB was 20 fold.
